Molecular target: T1, 11-beta-hydroxysteroid dehydrogenase type 2 (Mus musculus, UniProt P51661)
T1 sequence (P51661 whole entry): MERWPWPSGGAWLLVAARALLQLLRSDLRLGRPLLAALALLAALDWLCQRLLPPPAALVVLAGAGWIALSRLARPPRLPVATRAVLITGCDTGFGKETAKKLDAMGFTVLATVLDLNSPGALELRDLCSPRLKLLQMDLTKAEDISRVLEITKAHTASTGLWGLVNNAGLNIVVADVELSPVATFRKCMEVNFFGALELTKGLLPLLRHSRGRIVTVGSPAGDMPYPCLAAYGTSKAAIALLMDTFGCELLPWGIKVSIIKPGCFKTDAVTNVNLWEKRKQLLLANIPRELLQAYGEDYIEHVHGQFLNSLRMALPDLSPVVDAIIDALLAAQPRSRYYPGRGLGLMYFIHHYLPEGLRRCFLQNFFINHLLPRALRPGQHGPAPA
Assay: Inhibition of mouse 11beta-HSD2 by SPA

Row | SMILES | IC50
1 | CC(C)(Oc1ccc(Cl)cc1)C(=O)N[C@H]1C2CC3CC1C[C@](C(=O)NCc1ccc(-c4nnn[nH]4)cc1)(C3)C2 | 6.2 µM
2 | CC(C)(Oc1ccccc1)C(=O)N[C@H]1C2CC3CC1C[C@](C(=O)O)(C3)C2 | 1.5 µM
3 | CC(C)(Oc1ccc(Cl)cc1)C(=O)N[C@H]1C2CC3CC1C[C@](C(=O)NCc1ccc(C(=O)NS(C)(=O)=O)cc1)(C3)C2 | 10 µM
4 | CNC(=O)NC(=O)[C@]12CC3CC(C1)[C@@H](NC(=O)C(C)(C)Oc1ccc(Cl)cc1)C(C3)C2 | 16 µM
5 | CC(C)(Oc1ccc(F)cc1Cl)C(=O)N[C@H]1C2CC3CC1C[C@](c1nnn[nH]1)(C3)C2 | 1.2 µM

The remaining lines, values ahead:

Row | IC50 | SMILES
6 | > 100 µM | CC(C)(Oc1ccc(Cl)cc1)C(=O)N[C@H]1C2CC3CC1C[C@](CO)(C3)C2
7 | 40 µM | CC(C)(Oc1ccccc1)C(=O)N[C@H]1C2CC3CC1C[C@](C(N)=O)(C3)C2
8 | 90 µM | CC(C)(Oc1ccc(Cl)cc1)C(=O)N[C@H]1C2CC3CC1C[C@](C(=O)NCC(N)=O)(C3)C2
